target: HAT p300 (histone acetyltransferase p300) (Homo sapiens, UniProt Q09472); assay: HAT activity kit assay (Biovision K332), inhibition of HAT activity of p300; conditions: read-out: IC50 (μM), inhibition of HAT activity; secondary screening; tested at 0.5, 1, 10 and 100 μM
Protocol: Candidates 1 to 67, which are HAT inhibitors manufactured based on the PCAF structure, and HAT-24, HAT-26, and HAT-28 were diluted to 100 μM, and the degree of inhibition of HAT activity of p300 (inhibitory activity) was then determined using a kit for measuring HAT activity (Biovision, Cat No. K332, U.S.A) according to the method provided by the manufacturer. Here, the tissue was treated with C646 (HAT inhibitor) as a positive control.
Candidates 1 to 14 having a good HAT activity inhibitory effect in Section were diluted to concentrations of 0.5 μM, 1 μM, 10 μM, and 100 μM. Thereafter, the degree of inhibition of HAT activity was determined in the same manner as in Section.
Synthesis Examples 1 to 19 were diluted to 100 μM, and the degree of inhibition of HAT p300 activity was then determined in the same manner as in Section. Here, the tissues were treated with C646 and Candidate 12 (HAT-12) as the control, instead of Synthesis Examples 1 to 19.

By UniProt entry, the sequences of proteins in these tests, tags left out.
UniProt Q09472, whole entry: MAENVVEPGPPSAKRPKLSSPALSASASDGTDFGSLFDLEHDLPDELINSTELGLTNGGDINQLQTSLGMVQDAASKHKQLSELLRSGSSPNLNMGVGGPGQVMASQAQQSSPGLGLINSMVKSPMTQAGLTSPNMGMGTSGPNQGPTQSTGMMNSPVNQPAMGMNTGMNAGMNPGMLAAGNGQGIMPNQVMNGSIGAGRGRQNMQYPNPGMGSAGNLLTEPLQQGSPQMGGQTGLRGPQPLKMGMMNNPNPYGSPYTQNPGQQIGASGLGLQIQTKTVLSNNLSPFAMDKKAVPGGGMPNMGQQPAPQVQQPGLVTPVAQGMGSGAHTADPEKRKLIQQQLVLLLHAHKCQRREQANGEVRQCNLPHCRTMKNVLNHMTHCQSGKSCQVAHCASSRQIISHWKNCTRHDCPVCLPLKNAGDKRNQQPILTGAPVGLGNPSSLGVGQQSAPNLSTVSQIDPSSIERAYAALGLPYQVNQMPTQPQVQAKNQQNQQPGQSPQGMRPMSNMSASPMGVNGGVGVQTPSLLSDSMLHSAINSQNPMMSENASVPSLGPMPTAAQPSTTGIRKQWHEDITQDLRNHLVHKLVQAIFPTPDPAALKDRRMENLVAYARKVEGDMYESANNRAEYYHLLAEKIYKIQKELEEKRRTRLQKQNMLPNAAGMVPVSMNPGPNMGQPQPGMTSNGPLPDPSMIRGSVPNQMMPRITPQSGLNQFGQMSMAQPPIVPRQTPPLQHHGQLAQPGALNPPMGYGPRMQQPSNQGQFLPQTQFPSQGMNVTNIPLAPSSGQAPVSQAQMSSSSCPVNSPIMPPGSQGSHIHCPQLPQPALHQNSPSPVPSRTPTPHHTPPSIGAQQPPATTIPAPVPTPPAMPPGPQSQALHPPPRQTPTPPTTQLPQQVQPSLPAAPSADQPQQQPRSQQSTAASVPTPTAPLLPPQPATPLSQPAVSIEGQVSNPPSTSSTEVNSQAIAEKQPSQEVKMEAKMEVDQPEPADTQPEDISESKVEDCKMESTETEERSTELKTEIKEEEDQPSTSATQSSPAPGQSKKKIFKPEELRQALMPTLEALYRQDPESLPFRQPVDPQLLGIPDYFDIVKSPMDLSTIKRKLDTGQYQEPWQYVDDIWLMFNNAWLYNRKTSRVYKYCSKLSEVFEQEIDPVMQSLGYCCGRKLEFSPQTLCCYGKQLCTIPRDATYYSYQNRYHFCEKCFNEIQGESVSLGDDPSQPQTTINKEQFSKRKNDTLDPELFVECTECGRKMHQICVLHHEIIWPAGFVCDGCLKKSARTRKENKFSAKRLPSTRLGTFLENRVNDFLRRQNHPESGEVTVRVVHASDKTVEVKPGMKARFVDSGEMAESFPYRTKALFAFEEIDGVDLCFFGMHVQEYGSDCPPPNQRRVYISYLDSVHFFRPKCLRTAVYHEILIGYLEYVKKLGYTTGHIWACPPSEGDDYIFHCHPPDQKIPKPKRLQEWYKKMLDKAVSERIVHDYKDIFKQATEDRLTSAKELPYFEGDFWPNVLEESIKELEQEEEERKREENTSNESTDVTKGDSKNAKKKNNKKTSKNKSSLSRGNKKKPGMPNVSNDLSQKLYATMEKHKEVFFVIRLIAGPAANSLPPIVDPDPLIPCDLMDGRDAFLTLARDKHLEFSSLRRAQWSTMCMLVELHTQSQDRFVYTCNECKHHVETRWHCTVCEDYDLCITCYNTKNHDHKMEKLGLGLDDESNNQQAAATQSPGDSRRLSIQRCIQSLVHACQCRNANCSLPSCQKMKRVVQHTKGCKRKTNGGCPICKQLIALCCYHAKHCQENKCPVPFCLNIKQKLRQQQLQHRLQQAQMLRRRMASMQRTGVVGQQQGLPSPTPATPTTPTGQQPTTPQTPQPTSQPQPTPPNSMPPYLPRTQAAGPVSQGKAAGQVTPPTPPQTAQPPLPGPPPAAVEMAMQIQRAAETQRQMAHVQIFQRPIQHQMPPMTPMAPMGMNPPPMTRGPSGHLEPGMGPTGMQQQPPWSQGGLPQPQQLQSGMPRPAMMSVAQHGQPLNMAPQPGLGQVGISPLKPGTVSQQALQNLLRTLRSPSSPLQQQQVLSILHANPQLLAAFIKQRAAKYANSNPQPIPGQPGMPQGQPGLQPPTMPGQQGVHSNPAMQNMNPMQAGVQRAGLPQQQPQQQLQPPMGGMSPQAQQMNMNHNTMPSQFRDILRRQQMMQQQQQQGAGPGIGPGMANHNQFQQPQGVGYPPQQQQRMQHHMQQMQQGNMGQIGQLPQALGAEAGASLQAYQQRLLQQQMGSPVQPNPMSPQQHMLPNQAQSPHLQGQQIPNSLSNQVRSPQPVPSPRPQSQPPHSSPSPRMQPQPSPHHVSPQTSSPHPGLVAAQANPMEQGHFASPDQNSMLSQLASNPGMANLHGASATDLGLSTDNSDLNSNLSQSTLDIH

| SMILES | IC50 [µM] |
| --- | --- |
| COc1cc(/C=N/CCN2CCCCC2)cc(Br)c1OCc1cccc(C#N)c1 | 27.7 |
| COc1cc(/C=N/CCc2ccccn2)ccc1OCc1cccc(Cl)c1 | 32.8 |
| COc1cc(/C=N/CCN2CCCCC2)cc(I)c1OCc1cccc(C#N)c1 | 35.5 |
| CCOC(=O)c1cccc(COc2c(Br)cc(/C=N/CCN3CCCCC3)cc2OC)c1 | 12.1 |

Continued by falling IC50, values first:

| IC50 [µM] | SMILES |
| --- | --- |
| 44.1 | COc1cc(/C=N/CCN2CCCCC2)cc(I)c1OCc1cccc(Cl)c1 |
| 41.7 | COc1cc(C/C=N/CCc2ccccn2)cc(Cl)c1OCc1cccc(Cl)c1 |
| 32.4 | CCOC(=O)c1cccc(COc2c(I)cc(/C=N/CCN3CCCCC3)cc2OC)c1 |
| 13.1 | COc1cc(/C=N/CCc2cccs2)cc(Cl)c1OCc1cccc(Cl)c1 |
| 10.1 | COc1cc(/C=N/CCN2CCCCC2)cc(Cl)c1OCc1cccc(C#N)c1 |

Source: patent US20220194911A1, “NOVEL COMPOUND FOR INHIBITING HISTONE ACETYLTRANSFERASE P300 AND ANTIFIBROTIC COMPOSITION COMPRISING SAME” (REFURE LIFE SCIENCE INC., priority 2019, published 2022)
